Test results reported in paper PMC6364133, “Selectivity of Dietary Phenolics for Inhibition of Human Monoamine Oxidases A and B” (BioMed Research International, 2019).

Protein sequences, listed by entry. Tags and fused reporters are not part of them.
UniProt P21397, whole entry: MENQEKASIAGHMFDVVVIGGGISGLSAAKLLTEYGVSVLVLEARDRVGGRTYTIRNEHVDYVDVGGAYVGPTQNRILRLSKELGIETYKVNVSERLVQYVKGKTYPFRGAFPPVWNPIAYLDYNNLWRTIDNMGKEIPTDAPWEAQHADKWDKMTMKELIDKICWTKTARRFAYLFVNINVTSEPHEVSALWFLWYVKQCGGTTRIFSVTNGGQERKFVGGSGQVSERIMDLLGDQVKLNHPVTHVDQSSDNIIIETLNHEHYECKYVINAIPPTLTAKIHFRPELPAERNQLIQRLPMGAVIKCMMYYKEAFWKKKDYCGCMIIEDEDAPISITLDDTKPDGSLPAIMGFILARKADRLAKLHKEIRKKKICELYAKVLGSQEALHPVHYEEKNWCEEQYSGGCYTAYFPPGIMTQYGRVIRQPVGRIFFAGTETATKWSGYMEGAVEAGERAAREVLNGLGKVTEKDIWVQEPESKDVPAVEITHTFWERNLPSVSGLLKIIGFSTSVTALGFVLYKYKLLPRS
UniProt P27338, whole entry: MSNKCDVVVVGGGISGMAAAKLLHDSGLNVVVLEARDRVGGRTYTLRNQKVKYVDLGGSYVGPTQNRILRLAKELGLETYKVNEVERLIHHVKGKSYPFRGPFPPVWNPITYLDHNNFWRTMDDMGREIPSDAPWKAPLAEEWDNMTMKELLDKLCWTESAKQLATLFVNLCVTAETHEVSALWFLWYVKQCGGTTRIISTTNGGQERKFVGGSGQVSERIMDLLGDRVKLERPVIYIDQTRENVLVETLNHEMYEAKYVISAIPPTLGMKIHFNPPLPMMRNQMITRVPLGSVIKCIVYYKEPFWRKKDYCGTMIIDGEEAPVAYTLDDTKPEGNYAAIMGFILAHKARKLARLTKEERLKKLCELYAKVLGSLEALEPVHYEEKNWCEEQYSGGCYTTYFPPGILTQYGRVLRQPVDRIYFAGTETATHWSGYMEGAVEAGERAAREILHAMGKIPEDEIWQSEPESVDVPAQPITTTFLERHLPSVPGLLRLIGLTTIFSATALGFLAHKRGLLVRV

Experiments:
[1] = gavage, cited from earlier work
[2] = set-up: method as in PMID 23627552; settings: gavage bolus, cited from earlier work
MAO-A = MAO-A (Homo sapiens, UniProt P21397); test: MAO-A inhibition, kynuramine to 4-hydroxyquinoline, HPLC-fluorescence; settings: read-out: MAO-A IC50; kynuramine 10 µM, MAO-A 0.01 mg/mL, 15 min
MAO-B = MAO-B (Homo sapiens, UniProt P27338); test: MAO-B inhibition, kynuramine to 4-hydroxyquinoline, HPLC-fluorescence; settings: read-out: MAO-B IC50; kynuramine 10 µM, MAO-B 0.01 mg/mL, 15 min

Substance: isoeugenol
- absolute bioavailability ([1]; female rats): 19%
- absolute bioavailability ([1]; male rats): 10%
- bioavailability ([2]; female mice): 31%
- bioavailability ([2]; male mice): 28%
- IC50 (MAO-A): 3.72 ± 0.2 µM
- IC50 (MAO-B): 102 ± 5 µM

Like-named read-outs stand apart in the source and are kept apart here.
